This note sets out measurements from PubChem BioAssay AID651746 (Johns Hopkins Ion Channel Center, 2012).

Sequences of proteins named here, by UniProt entry; tags and fusion partners are left off.
UniProt O88943, whole entry, looked up: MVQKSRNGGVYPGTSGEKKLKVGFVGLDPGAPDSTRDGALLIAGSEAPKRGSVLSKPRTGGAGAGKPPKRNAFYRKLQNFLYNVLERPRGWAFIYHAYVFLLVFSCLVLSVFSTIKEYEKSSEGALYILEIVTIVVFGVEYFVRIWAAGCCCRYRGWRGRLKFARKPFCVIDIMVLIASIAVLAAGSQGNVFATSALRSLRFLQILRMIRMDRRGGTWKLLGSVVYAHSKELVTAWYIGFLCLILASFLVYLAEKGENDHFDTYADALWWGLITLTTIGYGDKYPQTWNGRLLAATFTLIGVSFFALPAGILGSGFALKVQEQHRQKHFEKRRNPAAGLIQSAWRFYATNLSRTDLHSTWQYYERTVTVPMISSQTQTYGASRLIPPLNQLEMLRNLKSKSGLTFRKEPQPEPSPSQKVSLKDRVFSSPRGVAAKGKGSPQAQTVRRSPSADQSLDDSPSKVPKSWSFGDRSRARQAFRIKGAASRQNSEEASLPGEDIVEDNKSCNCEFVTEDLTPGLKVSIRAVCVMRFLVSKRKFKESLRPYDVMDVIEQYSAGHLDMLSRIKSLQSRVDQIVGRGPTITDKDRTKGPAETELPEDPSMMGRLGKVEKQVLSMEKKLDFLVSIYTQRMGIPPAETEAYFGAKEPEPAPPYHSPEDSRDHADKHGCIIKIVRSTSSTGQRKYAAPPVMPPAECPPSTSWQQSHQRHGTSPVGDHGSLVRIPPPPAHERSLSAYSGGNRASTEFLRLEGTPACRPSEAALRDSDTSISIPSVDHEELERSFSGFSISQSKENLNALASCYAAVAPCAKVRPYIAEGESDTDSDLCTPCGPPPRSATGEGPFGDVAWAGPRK

This is a selection; strong and weak results do not stand in their true shares. Active and inactive are the calls of the source.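 How the source made its calls: active means mean percent inhibition of the KCNQ2 thallium signal more than 5 SD above the buffer-only control wells; inactive means the rest.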

In the experiment the target is Potassium voltage-gated channel subfamily KQT member 2 (Rattus norvegicus) (UniProt O88943). The experiment is described as follows: block of rat KCNQ2 potassium channel – cell-based, selectivity assay for KCNQ1 inhibitor project (AID 651746).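 Further: KCNQ2 expressed in CHO cells; 0% = buffer control wells and 100% = XE-991 inhibitor control.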 As to conditions: KCNQ2 cells, FluxOR thallium flux fluorescence; at 10 µM; active compounds read high.
The inhibition is the relative decrease from the control value, in per cent. In the case of `CCC1=CC2Cc3nc4ccc(Cl)cc4c(N)c3C(C1)C2` (configuration not stated), the inhibition was active: 68.3%.
With `COc1cc(C(=O)NCC2(N3CCOCC3)CCCCC2)cc(Cl)c1OC(C)C` the figure was active: 79.7%.
